The target in the assay is human IDO1 (Homo sapiens, UniProt P14902). Put plainly: IDO inhibition assay in human IDO1/HEK293 cells (IDO1 HEK Human). The following applies: read-out: IDO1 HEK Human IC50; HEK293 cells stably expressing human IDO1; 20 hours incubation; absorbance at 490 nm after Ehrlich reagent. As for the experimental part: HEK293 cells were transfected with a pCDNA-based mammalian expression vector harboring human IDO1 cDNA (NM 002164.2) by electroporation. They were cultured in medium (DMEM with 10% FBS) containing 1 mg/ml G418 for two weeks. Clones of HEK293 cells that stably expressed human IDO1 protein were selected and expanded for IDO inhibition assay.
The human IDO1/HEK293 cells were seeded at 10,000 cells per 50 μL per well with RPMI/phenol red free media contains 10% FBS in a 384-well black wall clear bottom tissue culture plate (Matrix Technologies LLC) 100 nL of certain concentration of compound was then added to each well using ECHO liquid handling systems. The cells were incubated for 20 hours in 37° C. incubator with 5% CO2.
The compound treatments were stopped by adding trichloroacetic acid (Sigma-Aldrich) to a final concentration at 0.2%. The cell plate was further incubated at 50° C. for 30 minute. The equal volume supernatant (20 μL) and 0.2% (w/v) Ehrlich reagent (4-dimethylaminobenzaldehyde, Sigma-Aldrich) in glacial acetic acid were mixed in a new clear bottom 384-well plate. This plate was then incubated at RT for 30 minute. The absorbance at 490 nm was measured on Envision plate reader. […]

Sequences of proteins named here, by UniProt entry; tags and fusion partners are left off.
UniProt P14902, whole entry: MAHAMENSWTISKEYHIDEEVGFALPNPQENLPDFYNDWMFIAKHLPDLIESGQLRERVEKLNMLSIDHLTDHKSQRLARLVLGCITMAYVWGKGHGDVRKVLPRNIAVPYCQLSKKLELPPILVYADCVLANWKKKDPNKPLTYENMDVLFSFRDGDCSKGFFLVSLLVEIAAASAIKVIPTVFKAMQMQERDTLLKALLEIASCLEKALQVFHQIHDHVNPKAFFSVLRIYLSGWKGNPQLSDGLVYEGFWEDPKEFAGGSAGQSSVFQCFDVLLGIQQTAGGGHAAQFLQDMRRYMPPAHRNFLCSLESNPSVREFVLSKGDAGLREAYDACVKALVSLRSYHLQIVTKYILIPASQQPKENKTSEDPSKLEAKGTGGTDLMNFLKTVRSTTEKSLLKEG

Each structure is given as a SMILES string.

As a reminder, the IC50 is the concentration that inhibits the measured activity by half. With `CC[C@H]1Oc2c(NC(=O)Nc3ccc(C)cc3)cc(-c3ccccc3-c3nnn[nH]3)cc2[C@@H]1c1ccccc1` (relative stereo), the IC50 is 52 nM.

(Values after patent publication US12145927B2 (BRISTOL-MYERS SQUIBB COMPANY, priority 2018, dated 2024).)
